The values below come from patent US20090012018A1, “Inhibition of pancretic cancer cell growth” (priority 2004, published 2009).

Type in all cases: cell-based, human
Test [1] concerns Wnt signaling (Top-Flash reporter). As to the kind of experiment: Fop/Top-Flash luciferase reporter assay. The conditions noted are these: for activity of the Wnt reporter: cyclopamine 10 μM, FIG. 4A. The protocol:
The cell lines were plated the day prior to transfection at a density of 8×10^4 cells/well in a 24-well plate. The luciferase reporter constructs used included: Top-Flash and Fop-Flash containing multimerized Tcf-Lef binding sites or nonfunctional sites, respectively; TK-Luc (Promega); and GliBS containing 8×Gli binding sites upstream of the TK minimal promoter (Sasaki et al., Development, 124:1313-1322, 1997). In different experiments, the reporter constructs were co-transfected with an expression vector containing a dominant-negative form of Lef1 or the endogenous Wnt inhibitor Icat. The dominant negative Lef1 (gift from S. Pleasure) was generated by cloning the 63 amino acid N-terminal deleted form of Lef1 into the pEF5 plasmid. This construct also contains an IRES-EGFP cassette. The cDNA coding for the Icat protein was cloned into pIRES2-EGFP (BD Biosciences Clontech). Transfections were performed using the Effectene transfection reagent […] according to the user's manual. A Renilla luciferase plasmid (Promega) was included to control for transfection efficiency. Transfected cells were cultured in medium containing serum. […] Cells were harvested 24 hrs after transfection, and luciferase activity was assayed using the Dual Luciferase kit (Promega), according to the user's manual.
For each Fop-luciferase or Top-luciferase experiment, a renilla luciferase construct was included. For each experimental condition (drug treatment, co-transfection or siRNA), triplicate Top- and Fop-luciferase samples were analyzed. To equilibrate the total vector-DNA (or siRNA) amount in all samples, equivalent amounts of an empty expression vector or unrelated siRNAs were transfected into control samples. The following equations were used to obtain the normalized luciferase values and the relative (fold) activation. The firefly luciferase (Fop and Top) values were divided by the renilla luciferase values to obtain the normalized luciferase values. The normalized Top values for each condition were divided by the Fop values of the same condition (e.g., untreated Top/untreated Fop; drug-treated Top/drug-treated Fop). […] To minimize the number of bars in each figure, only representative average Fop values are included in the graphs.
For orientation: In a reporter assay the amount or activity of a reporter protein is the signal.

The subject of test [2] is Hedgehog signaling (GliBS-luc reporter). Kind of test: GliBS-luciferase reporter assay. As to conditions: CFPAC-1, BxPC3, L3.6sl, Panc4.21, cyclopamine 10 μM, sulindac 250 μM, FIG. 4B. The protocol: The cell lines were plated the day prior to transfection at a density of 8×10^4 cells/well in a 24-well plate. The luciferase reporter constructs used included: Top-Flash and Fop-Flash containing multimerized Tcf-Lef binding sites or nonfunctional sites, respectively; TK-Luc (Promega); and GliBS containing 8×Gli binding sites upstream of the TK minimal promoter (Sasaki et al., Development, 124:1313-1322, 1997). In different experiments, the reporter constructs were co-transfected with an expression vector containing a dominant-negative form of Lef1 or the endogenous Wnt inhibitor Icat. The dominant negative Lef1 (gift from S. Pleasure) was generated by cloning the 63 amino acid N-terminal deleted form of Lef1 into the pEF5 plasmid. This construct also contains an IRES-EGFP cassette. The cDNA coding for the Icat protein was cloned into pIRES2-EGFP (BD Biosciences Clontech). Transfections were performed using the Effectene transfection reagent […] according to the user's manual. A Renilla luciferase plasmid (Promega) was included to control for transfection efficiency. Transfected cells were cultured in medium containing serum. […] Cells were harvested 24 hrs after transfection, and luciferase activity was assayed using the Dual Luciferase kit (Promega), according to the user's manual. […]

The test system of test [3] is pancreatic adenocarcinoma cell lines. Kind of test: Growth, BrdU incorporation and apoptosis of pancreatic cancer cell lines (results stated for the lines together). The conditions noted are these: 75 μM sulindac sulfone, 5 μM cyclopamine or both; FIG. 4H. On the procedure: The small chemical inhibitors were used at the following final concentrations: up to 250 μM for sulindac (Sigma), up to 300 μM for sulindac sulfone (Calbiochem or ICN), NS-398 up to 25 μM (Calbiochem), sodium salicylate up to 100 μM (Calbiochem). […] To test for drug sensitivity, the cells were plated in control medium or in medium containing the drug of interest for 2 to 5 days. The culture media was changed every 48 hrs. The images showing cell morphology were taken with a Nikon inverted microscope.
Cells were pulsed with 10 μM BrdU for two hours and then harvested and fixed. BrdU incorporation was detected with a fluorescein isothiocyanate conjugated anti-BrdU antibody (BD Biosciences) and total DNA was stained with 7-AAD (BD Biosciences). FACS analysis was performed according to the BD Biosciences BrdU flow kit manual. Cells in S-phase were defined as the BrdU-positive cell population with a DNA content between 2N and 4N. According to the manual, apoptotic cells were defined as a subpopulation of G0/G1 cells with DNA content lower than the diploid amount (<2N).
The cell lines were plated the day prior to transfection at a density of 8×10^4 cells/well in a 24-well plate. […]
Background: Incorporation of labelled thymidine or its analogues reports DNA synthesis.

`CC1=C2C[C@H]3[C@@H](CC=C4C[C@@H](O)CC[C@@]43C)[C@@H]2CC[C@]12O[C@@H]1C[C@H](C)CN[C@H]1[C@H]2C` [cyclopamine, 11-deoxojervine]: in test [1] (CFPAC-1, BxPC3, L3.6sl, Panc4.21, 24 hrs after transfection, sulindac 250 μM, sulindac sulfone 150 μM, cyclopamine 10 μM, or co-transfection), the “Top-Flash reporter activity (Wnt signaling)” value is listed as “inhibited”. In addition, the “activity of the Wnt reporter” value in test [1] (CFPAC-1), in test [1] (L3.6sl) and in test [1] (Panc4.21) was “strongly reduced” each time. The “activity of the GliBS-luc Hedgehog reporter” value in test [2] is “inhibited”; in test [2] (listed as Cyclopamine), “inhibits the activity of the Hedgehog reporter construct”. Also, the “cell proliferation as measured by BrdU incorporation” value in test [3] was “inhibits cell proliferation”.
